Columns and labels:
[1] = molecular target: Muscarinic acetylcholine receptor M3 (Homo sapiens, UniProt P20309)
[2] = molecular target: Muscarinic acetylcholine receptor M1 (Homo sapiens, UniProt P11229)

Amino acid sequences for entries named in this document (tags omitted). A change or cut given only in a name is not applied to a line headed by its entry.
UniProt P20309, whole entry: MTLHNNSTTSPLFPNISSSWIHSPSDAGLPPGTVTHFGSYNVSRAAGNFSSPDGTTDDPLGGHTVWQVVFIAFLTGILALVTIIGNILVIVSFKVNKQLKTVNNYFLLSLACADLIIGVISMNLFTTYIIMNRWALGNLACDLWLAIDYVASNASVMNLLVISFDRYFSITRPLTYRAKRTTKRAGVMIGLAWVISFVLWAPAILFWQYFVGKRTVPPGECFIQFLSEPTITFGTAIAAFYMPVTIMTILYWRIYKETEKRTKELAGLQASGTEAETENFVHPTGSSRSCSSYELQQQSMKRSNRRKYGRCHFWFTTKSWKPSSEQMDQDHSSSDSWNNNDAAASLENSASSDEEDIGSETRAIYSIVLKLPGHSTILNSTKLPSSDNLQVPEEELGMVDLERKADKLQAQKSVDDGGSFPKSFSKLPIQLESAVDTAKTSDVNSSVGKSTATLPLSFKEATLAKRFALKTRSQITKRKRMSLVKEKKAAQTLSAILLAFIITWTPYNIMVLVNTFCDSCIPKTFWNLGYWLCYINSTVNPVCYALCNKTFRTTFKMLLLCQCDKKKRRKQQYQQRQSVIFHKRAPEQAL
UniProt P11229: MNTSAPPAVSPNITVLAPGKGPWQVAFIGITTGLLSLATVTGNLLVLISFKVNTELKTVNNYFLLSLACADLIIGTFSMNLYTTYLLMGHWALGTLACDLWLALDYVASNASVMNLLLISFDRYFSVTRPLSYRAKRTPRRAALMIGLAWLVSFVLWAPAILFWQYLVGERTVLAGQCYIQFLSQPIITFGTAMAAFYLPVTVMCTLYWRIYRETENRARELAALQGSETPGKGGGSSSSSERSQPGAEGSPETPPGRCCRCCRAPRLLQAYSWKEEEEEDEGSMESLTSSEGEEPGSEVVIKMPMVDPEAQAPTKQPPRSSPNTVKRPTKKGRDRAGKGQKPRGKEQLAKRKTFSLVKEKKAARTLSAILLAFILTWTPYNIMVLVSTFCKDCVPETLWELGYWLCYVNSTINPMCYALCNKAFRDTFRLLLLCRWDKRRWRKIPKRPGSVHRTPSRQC

Compound: CN1CCN(C2=c3ccccc3=Nc3ccc(Cl)cc3N2)CC1 [6-chloro-10-(4-methylpiperazin-1-yl)-2,9-diazatricyclo[9.4.0.0^{3,8}]pentadeca-1,3(8),4,6,10,12,14-heptaene]
- Ki [1]: 0.109 µM
- Ki [2]: 0.031 µM

From BindingDB's records for doi:10.1016/s0014-2999(00)00037-6 (Eli Lilly, 2000)
